Experimental data: ChEMBL document CHEMBL1134946, “Synthesis and NK(1)/NK(2) binding activities of a series of diacyl-substituted 2-arylpiperazines” (Bioorg Med Chem Lett, 2002)

Chains of the proteins cited; added tags and fusions are not shown.
UniProt P21452, whole entry: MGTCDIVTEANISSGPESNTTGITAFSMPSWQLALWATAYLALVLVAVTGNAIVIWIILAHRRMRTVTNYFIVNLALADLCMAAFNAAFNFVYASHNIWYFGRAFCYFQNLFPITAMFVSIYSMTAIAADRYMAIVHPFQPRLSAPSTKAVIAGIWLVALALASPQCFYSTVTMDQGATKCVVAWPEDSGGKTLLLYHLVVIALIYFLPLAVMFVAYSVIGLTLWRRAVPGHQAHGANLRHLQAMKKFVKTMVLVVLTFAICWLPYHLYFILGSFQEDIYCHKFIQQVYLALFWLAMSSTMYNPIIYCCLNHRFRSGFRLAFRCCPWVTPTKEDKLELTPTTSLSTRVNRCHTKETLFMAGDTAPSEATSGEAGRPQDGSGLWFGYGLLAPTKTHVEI
UniProt P25103, whole entry: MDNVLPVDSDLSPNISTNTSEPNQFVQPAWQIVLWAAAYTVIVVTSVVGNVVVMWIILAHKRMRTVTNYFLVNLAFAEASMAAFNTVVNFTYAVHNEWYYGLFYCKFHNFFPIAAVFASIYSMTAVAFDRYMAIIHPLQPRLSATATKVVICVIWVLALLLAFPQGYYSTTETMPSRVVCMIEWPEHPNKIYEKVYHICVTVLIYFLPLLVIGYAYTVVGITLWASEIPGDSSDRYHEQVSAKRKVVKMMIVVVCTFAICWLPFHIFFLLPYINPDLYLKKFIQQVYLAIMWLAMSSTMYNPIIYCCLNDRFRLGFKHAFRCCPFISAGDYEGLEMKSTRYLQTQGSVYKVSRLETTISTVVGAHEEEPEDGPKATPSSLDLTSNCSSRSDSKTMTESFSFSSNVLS

What was measured:
[1] = target: Substance-K receptor (Homo sapiens, UniProt P21452); assay: Binding affinity in membrane preparations containing recombinant human Tachykinin receptor 2 in CHO cells by using [3H]NKA as the radioligand.; format: cell membranes
[2] = target: Substance-P receptor (Homo sapiens, UniProt P25103); assay: Binding affinity in membrane preparations containing recombinant human Tachykinin receptor 1 in CHO cells by using [3H]-Sar SP as the radioligand.; format: cell membranes

Compound | Ki [1] | Ki [2]
Cc1cc(C)cc(C(=O)N2CCN(C(=O)CNC3CCN(Cc4ccccc4)CC3)[C@@H](c3ccc(Cl)c(Cl)c3)C2)c1 | 219 nM | –
O=C(c1cc(C(F)(F)F)cc(C(F)(F)F)c1)N1CCN(C(=O)CNC2CCN(Cc3ccccc3)CC2)[C@@H](c2ccc(Cl)c(Cl)c2)C1 | 270 nM | 1.8 nM
O=C(c1cc(C(F)(F)F)cc(C(F)(F)F)c1)N1CCN(C(=O)CNC2CCN(Cc3ccccc3)CC2)C(c2ccc(Cl)c(Cl)c2)C1 (configuration not stated) | 17 nM | 5.3 nM
Cc1cc(C)cc(C(=O)N2CCN(C(=O)CNC3CCN(Cc4ccccc4)CC3)C(c3ccc(Cl)c(Cl)c3)C2)c1 (configuration not stated) | 4.9 nM | –
Cc1cc(C)cc(C(=O)N2CCN(C(=O)CNC3CCN(Cc4ccccc4)CC3)[C@H](c3ccc(Cl)c(Cl)c3)C2)c1 | 3.4 nM | –
